Reference: PMC6155208

Molecular target: α-Synuclein
Test: small-angle neutron scattering (SANS); αS at 2.5 or 5 mg/ml in 5 mM Mes pH 6.5 in D2O; oligomers collected at the oligomer collection time in the early lag phase of fibrillation; fit with the polydisperse Gaussian Coil model (Triaxial Ellipsoid model for comparison); size of the oligomer from the volume of the oligomer divided by that of one αS molecule

population of oligomers, TE model: 25%
population of oligomers, pGC model: 68%
stoichiometry N: 18
Substance: α-Synuclein (natural protein)
